The results in this text go back to patent US6384056B1, “Heterocyclic thioesters or ketones for vision and memory disorders” (GPI NIL Holdings, Inc., priority 1998, dated 2002).

Chains of the proteins cited; added tags and fusions are not shown.
UniProt P62942, whole entry, species assumed: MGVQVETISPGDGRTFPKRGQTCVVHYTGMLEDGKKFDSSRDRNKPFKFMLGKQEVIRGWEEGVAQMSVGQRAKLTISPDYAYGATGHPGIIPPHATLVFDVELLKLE

This test deals with FKBP12 (Homo sapiens, UniProt P62942). Nature of the test: Ki test procedure: inhibition of peptidyl-prolyl isomerase (rotamase) activity, chymotrypsin-coupled assay. The format is biochemical. The settings on record: apparent Ki. An excerpt:
The inhibition of the prolyl peptidyl cis-trans isomerase activity of FKBP may be measured as an indicator of this affinity.
Inhibition of the peptidyl-prolyl isomerase (rotamase) activity of the compounds used in the inventive methods and pharmaceutical compositions can be evaluated by known methods described in the literature (Harding et al., Nature, 1989, 341:758-760; Holt et al. J. Am. Chem. Soc., 115:9923-9938).
The cis-trans isomerization of an alanine-proline bond in a model substrate, N-succinyl-Ala-Ala-Pro-Phe-p-nitroanilide, is monitored spectrophotometrically in a chymotrypsin-coupled assay, which releases para-nitroanilide from the trans form of the substrate. The inhibition of this reaction caused by the addition of different concentrations of inhibitor is determined, and the data is analyzed as a change in first-order rate constant as a function of inhibitor concentration to yield the apparent Ki values. […]
The absorbance at 390 nm versus time is monitored for 90 seconds using a spectrophotometer and the rate constants are determined from the absorbance versus time data files.

Consider “3-Phenyl-1-propyl (2S)-1-(3,3-dimethyl-1,2-dioxopentyl)-2-pyrrolidinecarbothioate [Compound 30]”, for which the Ki worked out at 11 nM.
